Assay results reported in ChEMBL document CHEMBL3860073, “Thermodynamic properties of leukotriene A4 hydrolase inhibitors” (Bioorg Med Chem, 2016).

What was measured:
[1] = target: T1, Leukotriene A-4 hydrolase (Homo sapiens, UniProt P09960); assay: Binding affinity to human C-terminal his6-tagged/N-terminal T7 gene leader sequence-tagged LTA4H at 35 degC by ITC method
T1 sequence (P09960 whole entry): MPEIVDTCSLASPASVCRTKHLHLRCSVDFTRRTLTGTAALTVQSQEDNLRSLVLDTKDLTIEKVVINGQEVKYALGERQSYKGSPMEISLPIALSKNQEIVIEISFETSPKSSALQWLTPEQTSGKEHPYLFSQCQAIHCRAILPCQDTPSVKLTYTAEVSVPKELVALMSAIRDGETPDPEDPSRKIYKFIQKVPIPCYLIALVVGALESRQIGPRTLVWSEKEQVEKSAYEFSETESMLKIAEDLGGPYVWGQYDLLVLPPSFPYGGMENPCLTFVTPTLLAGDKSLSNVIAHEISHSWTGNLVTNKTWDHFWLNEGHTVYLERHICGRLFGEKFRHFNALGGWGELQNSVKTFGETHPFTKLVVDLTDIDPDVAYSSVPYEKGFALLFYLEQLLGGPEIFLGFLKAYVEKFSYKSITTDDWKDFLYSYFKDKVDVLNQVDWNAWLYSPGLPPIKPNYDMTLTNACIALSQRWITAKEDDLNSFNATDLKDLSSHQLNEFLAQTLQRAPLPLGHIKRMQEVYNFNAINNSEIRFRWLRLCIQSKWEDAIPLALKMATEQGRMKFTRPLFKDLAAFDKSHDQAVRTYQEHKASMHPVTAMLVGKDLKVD

[2] = target: T1, Leukotriene A-4 hydrolase; assay: Inhibition of human C-terminal his6-tagged/N-terminal T7 gene leader sequence-tagged LTA4H using L-arginine-7-amino-4-Methylcoumarine as substrate preincubated for 30 mins followed by substrate addition measured for 30 mins by fluorescence assay
[3] = target: T1, Leukotriene A-4 hydrolase; assay: Binding affinity to human C-terminal his6-tagged/N-terminal T7 gene leader sequence-tagged LTA4H at 15 degC by ITC method
[4] = target: T1, Leukotriene A-4 hydrolase; assay: Non-competitive inhibition of human C-terminal his6-tagged/N-terminal T7 gene leader sequence-tagged LTA4H using varying levels of L-arginine-7-amino-4-Methylcoumarine as substrate preincubated for 30 mins followed by substrate addition measured for 30 mins by fluorescence assay
[5] = target: T1, Leukotriene A-4 hydrolase; assay: Binding affinity to human C-terminal his6-tagged/N-terminal T7 gene leader sequence-tagged LTA4H at 25 degC by ITC method

Molecule CN(CCCOc1ccc(Cc2ccccc2)cc1)CCC(=O)O has a Kd [1] of 350 nM, an IC50 [2] of 6 nM and a Kd [3] of 60 nM. It also gave a Ki [4] of 3 nM and a Kd [5] of 290 nM.
